# Assay results from PubChem BioAssay AID540263 (National Center for Advancing Translational Sciences (NCATS), 2011).
# Protein sequences, listed by entry. Tags and fused reporters are not part of them.
# UniProt Q14974, whole entry: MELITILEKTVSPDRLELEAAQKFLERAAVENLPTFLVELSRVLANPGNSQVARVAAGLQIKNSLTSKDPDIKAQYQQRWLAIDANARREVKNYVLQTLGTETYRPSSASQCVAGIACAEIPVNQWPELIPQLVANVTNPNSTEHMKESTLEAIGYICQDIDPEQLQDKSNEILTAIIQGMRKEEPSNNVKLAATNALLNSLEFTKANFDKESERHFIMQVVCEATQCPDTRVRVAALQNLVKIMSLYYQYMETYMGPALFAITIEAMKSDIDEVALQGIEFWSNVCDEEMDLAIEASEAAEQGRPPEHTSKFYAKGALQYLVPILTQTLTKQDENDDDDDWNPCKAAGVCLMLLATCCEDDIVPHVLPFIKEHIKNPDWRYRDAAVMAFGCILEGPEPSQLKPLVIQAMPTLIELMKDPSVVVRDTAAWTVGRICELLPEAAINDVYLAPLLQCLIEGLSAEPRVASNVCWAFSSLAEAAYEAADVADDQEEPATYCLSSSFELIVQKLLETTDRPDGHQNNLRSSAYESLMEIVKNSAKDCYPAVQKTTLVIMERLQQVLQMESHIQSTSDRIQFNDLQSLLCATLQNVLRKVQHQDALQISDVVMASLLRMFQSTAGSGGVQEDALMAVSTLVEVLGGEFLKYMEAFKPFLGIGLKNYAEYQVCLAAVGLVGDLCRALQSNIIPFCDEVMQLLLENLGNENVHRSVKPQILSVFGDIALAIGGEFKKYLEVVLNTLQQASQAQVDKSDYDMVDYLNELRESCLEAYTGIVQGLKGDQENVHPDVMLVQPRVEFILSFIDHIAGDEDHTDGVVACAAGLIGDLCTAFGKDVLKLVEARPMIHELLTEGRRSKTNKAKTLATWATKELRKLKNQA
# UniProt O95149, whole entry partner: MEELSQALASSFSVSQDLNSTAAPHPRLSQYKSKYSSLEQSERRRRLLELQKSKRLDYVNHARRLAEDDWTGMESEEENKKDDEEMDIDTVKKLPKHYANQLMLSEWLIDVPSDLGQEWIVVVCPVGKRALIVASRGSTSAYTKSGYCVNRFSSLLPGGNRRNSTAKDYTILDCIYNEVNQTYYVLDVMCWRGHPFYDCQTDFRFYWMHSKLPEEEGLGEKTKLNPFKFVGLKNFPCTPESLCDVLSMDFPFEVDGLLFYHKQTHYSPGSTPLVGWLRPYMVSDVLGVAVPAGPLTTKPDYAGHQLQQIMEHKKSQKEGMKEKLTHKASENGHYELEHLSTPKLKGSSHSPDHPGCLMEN
# This is a selection; strong and weak results do not stand in their true shares. Records with an inconclusive call do not appear. Active and inactive are the calls of the source. Calls come from the whole dose curve.
# Target: Importin subunit beta-1 (Homo sapiens) (UniProt Q14974)
# Assay: qHTS Assay for Inhibitors of Rango (Ran-regulated importin-beta cargo) - Importin beta complex formation;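 note: 0% = DMSO wells and 100% = buffer wells lacking importin beta; nearly all actives have a fitted effect of over 15% in size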
# Settings: Rango CFP/YFP FRET sensor + importin beta, 45 min; at 92.2 µM (top of the series)
# From the text: NIH Molecular Libraries Probe Production Centers Network [MLPCN] NIH Chemical Genomics Center [NCGC] MLPCN Grant: R03 MH090808-01A1 Assay Submitter (PI): Petr Kalab NCGC Assay Overview: The small GTPase Ran regulates transport of macromolecules between the nucleus and the cytoplasm (nuclear transport) and has important functions in mitotic spindle assembly, nuclear envelope (NE) formation and nuclear pore complex (NPC) assembly. RanGTP gradient is thought to promote spindle assembly by providing a spatial clue to microtubule nucleation and Aurora A activation. Because the localized release and binding of importin alpha cargo relays this spatial clue to SAFs, inhibitors of the Rango - importin beta complex can then be used in further understanding their role in cell cycle specifically in mitosis progression. […] Activation of Aurora A has been linked to different types of cancer and a number of Aurora kinase inhibitors are being developed as potential canter therapeutics therefore, identified inhibitors of this complex could be developed into potential anti-mitotic probes for cancer treatment. Purified recombinant proteins Rango and importin beta were provided by the assay submitter. The assay used a fluorescence resonance energy transfer (FRET) Rango biosensor that contains the IBB of human snurportin 1 flanked by yellow fluorescent protein (EYFP) at the amino terminus and cerulean CFP10 at the carboxy terminus. […] Inhibitors will therefore be identified based on the ability to interfere with the FRET signal decrease. DMSO treated and no importin beta (buffer only) wells were used as negative and positive controls respectively. FRET readings were obtained at two time points. FRET reading prior to importin beta addition (pre-read) were used flag potential compound interference; FRET reading after importin beta addition (post-read) were used to identify inhibitors using the FRET ratio parameter.
# NCGC Assay Protocol Summary: Two and a half uL/well of Rango-buffer solution (50 nM Rango, 1x PBS, 1mM DTT, 0.02% Tween-20, 0.1% BSA final concentrations) was dispensed into 1536-well assay plates (Greiner, solid black medium-binding plates) with Aurora Discovery BioRAPTR Flying Reagent Dispenser (FRD; Beckton-Dickenson). Compound solution (23 nL) was transferred to the assay plate using Kalypsys pin tool equipped with a 1536-pin tool and incubated at room temperature for 5 min followed by a FRET pre-read using the PerkinElmer Envision plate reader. Two and a half uL/well of Importin beta - buffer solution (0.125 microM importin beta, 1x PBS, 1mM DTT, 0.02% Tween-20, 0.1% BSA final concentrations) were then added and incubated at room temperature giving a final reaction volume of 5uL. After 45min FRET post-read was obtained via the Envision plate reader using the same optics and settings as the pre-read (CFP/YFP optimized dual optical module D450/D505; excitation mirror CFP 430/24 nm; and emission filters CFP 486/10 nm and YFP 530/10 nm).
row,SMILES,inhibition of complex formation
1,O=C(OC1CN2CCC1CC2)c1ccc([N+](=O)[O-])cc1 (centres undefined),inactive: -1.18%
2,O=C(NCC1(N2CCOCC2)CCCCC1)c1cc(F)c(F)cc1Cl,inactive: -3.55%
3,COc1cc(OC)c(C(=O)NCC2(N(C)C)CCCCC2)cc1OC,inactive: 0.54%
4,CN(C)c1cccc(C(=O)NCC2(N3CCCCC3)CCCCC2)c1,inactive: -1.37%
5,O=[N+]([O-])c1cc([N+](=O)[O-])c(OC2CCCCC2O)c([N+](=O)[O-])c1 (centres undefined),inactive: -1.03%
6,CC(C)c1ccc(NC2CCN(C(=O)OC(C)(C)C)CC2)cc1,inactive: 0.467%
7,COc1ccc(NC2CCN(C(=O)OC(C)(C)C)CC2)cc1,inactive: 0.0122%
8,CC(C)c1ccc(C(=O)NCC2(N3CCOCC3)CCCCC2)cc1,inactive: -0.159%
9,CN1CCN(CCOC(=O)C(O)(c2ccccc2)c2ccccc2)CC1,inactive: -1.99%
10,O=C(NCC1(N2CCOCC2)CCCCC1)c1cc(=O)[nH]c2ccccc12,inactive: 1.93%
11,COc1cc(C(=O)NCC2(N3CCCCC3)CCCCC2)ccc1OC(F)F,inactive: 1.61%
12,O=C(NCC1(N2CCCCC2)CCCCC1)c1cccc(C(F)(F)F)c1,inactive: -1.17%
13,O=[N+]([O-])c1cc([N+](=O)[O-])c(NCC2CCS(=O)(=O)C2)c([N+](=O)[O-])c1 (centres undefined),inactive: -2.61%
14,O=C(NCC1(N2CCCCC2)CCCCC1)c1cccc([N+](=O)[O-])c1,inactive: 0.313%
15,CSc1ccc(C(=O)NCC2(N3CCOCC3)CCCCC2)cc1,inactive: -0.951%
16,N#CC1(Nc2ccccc2)CCN(CCc2ccccc2)CC1,inactive: 2.28%
17,O=C(NCC1(N2CCCCC2)CCCCC1)c1ccc(OC(F)F)cc1,inactive: -1.98%
18,CCCN1CCC(Nc2cc(OC)cc(OC)c2)CC1,inactive: 2.56%
19,Cc1cc(N(CCCl)CCCl)ccc1C=O,inactive: 2.82%
20,c1ccc(CN2CCC(Nc3ccccc3)CC2)cc1,inactive: 3.37%
21,CN(C)C1(CNC(=O)c2cccc(C#N)c2)CCCCC1,inactive: -0.526%
22,CCOC(=O)C(CC)C1=NC(C)(C)Cc2ccccc21.O=[N+]([O-])c1cc([N+](=O)[O-])c(O)c([N+](=O)[O-])c1 (centres undefined),inactive: -0.164%
23,CC(C)(C)OC(=O)N1CCC(N(C(=O)c2ccccc2)c2ccc(Cl)cc2)CC1,inactive: -0.387%
24,O=C(O)c1cccc(Nc2c([N+](=O)[O-])cc([N+](=O)[O-])cc2[N+](=O)[O-])c1,inactive: 5.41%
25,CCc1cc(C(=O)NCC2(N3CCCCC3)CCCCC2)sc1C,inactive: 3.46%

row,SMILES,inhibition of complex formation
1,O=C(OC1CN2CCC1CC2)C1c2ccccc2C=Cc2ccccc21 (centres undefined),inactive: -0.788%
2,N/C(=N\O)c1c(N)no[n+]1[O-],inactive: 3.74%
3,CCOC(=O)N1CCC(Nc2ccc(C)cc2)CC1,inactive: -0.0764%
4,COc1ccc(C(=O)NCC2(N3CCOCC3)CCCCC2)cc1OC,inactive: -0.413%
5,O=C(NCC1(N2CCOCC2)CCCCC1)c1cc(Br)ccc1Cl,inactive: 0.822%
6,COc1cc(C(=O)NCC2(N3CCOCC3)CCCCC2)cc(OC)c1C,inactive: 2.5%
7,CN1CCC(Nc2ccc(Cl)cc2)CC1,inactive: -0.41%
8,CCC(CO)(C(=O)OC1CN2CCC1CC2)c1ccccc1 (centres undefined),inactive: -0.785%
9,COc1cccc(C(=O)N(c2cc(C)cc(C)c2)C2CCN(C(=O)OC(C)(C)C)CC2)c1,inactive: 1.05%
10,COc1cc(OC)cc(C(=O)NCC2(N3CCOCC3)CCCCC2)c1,inactive: 0.746%
11,CCCOc1ccc(C(=O)NCC2(N(C)C)CCCCC2)cc1,inactive: 3.07%
12,O=C(O)C1(Nc2ccccc2)CCN(Cc2ccccc2)CC1,inactive: 0.374%
13,CC(C)(C)OC(=O)N1CCC(Nc2ccccc2)CC1,inactive: 0.44%
14,CN1CCC(Nc2ccc(F)c(Cl)c2)CC1,inactive: -0.143%
15,CCOc1ncccc1C(=O)NCC1(N2CCOCC2)CCCCC1,inactive: -0.924%
16,CN(C)c1ccc(C(=O)NCC2(N3CCCCC3)CCCCC2)cc1,inactive: 0.343%
17,Cn1c(=O)[nH]cc(N(CCCl)CCCl)c1=O,inactive: 0.215%
18,O=C(NCC1(N2CCCCC2)CCCCC1)c1ccco1,inactive: -0.684%
19,CCN1CCC(Nc2cccc(F)c2)CC1,inactive: -4.87%
20,Cc1ccc(NC2(C#N)CCN(Cc3ccccc3)CC2)cc1,inactive: 1.88%
21,Fc1ccccc1NC1CCN(Cc2ccccc2)CC1,inactive: -0.0053%
22,Cc1ccc(C(=O)NCC2(N3CCCCC3)CCCCC2)o1,inactive: -2.2%
23,COc1cc(OC)cc(C(=O)NCC2(N3CCCCC3)CCCCC2)c1,inactive: 2.54%
24,CC(=O)N(c1ccccc1)C1CCNCC1,inactive: 3.24%
